The fold induction is the signal under treatment as a multiple of the control signal.

Consider 24 molecules from PubChem BioAssay AID1465 (SRMLSC, 2008).

Some of the results follow. Measured potencies and affinities stand elsewhere. Activity calls are given as the source filed them.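 The calls were made as follows: active = fold induction of absorbance versus untreated yeast above a set limit, then at least 30% activation at any dose in follow-up; inconclusive = repeats straddling the limit, or above it without dose testing; inactive = fold induction below the set limit.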

A short description of the test: enhancers of respiration in Yfh1-depleted yeast, dose response, Friedreich's ataxia, plus single-dose screen (AID 1465). Conditions: S. cerevisiae Yfh1-off respiration, WST-1 reduction, 72 h; at 50 µM; hits give high values. (In general: Formazan colour is commonly taken as a measure of viable cells.)
As to `C(Cc1nn[nH]n1)Cc1nn[nH]n1`, the fold induction was inactive: 1.05. `O=C(OC1CN2CCC1CC2)c1cccc(Cl)c1` (centres undefined): the fold induction was inactive: 1.02. Under `CC(C)C(=O)NC(Sc1ccccc1)C(Cl)(Cl)Cl` (centres undefined) stands inactive: 0.76. As to `O=P(Nc1nccs1)(c1ccccc1)c1ccccc1`, the fold induction is inactive: 1.04. Consider `c1nnnn1CCn1cnnn1`, for which the fold induction was inactive: 1.02. Take `CCOc1ccc(C2=NCC(CBr)S2)cc1` (centres undefined): the fold induction is inactive: 1.18. For the molecule `O=P1(Nc2nc3ccc(Cl)cc3s2)COc2ccccc2O1` (centres undefined), the fold induction was inactive: 1.2. Take `CC(C)(C)C(=O)NC(Sc1ccccc1)C(Cl)(Cl)Cl` (centres undefined): the fold induction was inactive: 0.8. For the molecule `C[C@@H]1C=CCP(=O)(Oc2ccccc2)O1` (some centres undefined), the fold induction was inactive: 1.04. `C[C@H]1OP(=O)(Oc2ccccc2)C[C@@H]2O[C@@H]21` (some centres undefined): the fold induction is inactive: 1.08. For the molecule `CC(=O)Nc1ccc(Oc2c([N+](=O)[O-])cc([N+](=O)[O-])cc2[N+](=O)[O-])cc1`, the fold induction was inactive: 1.15. In the case of `CC(=O)Nc1ccc([As](=O)(O)O)c(O)c1`, the fold induction was inactive: 1.08.

`CCNC(=S)/N=C(\N)N[N+](=O)[O-]`: the fold induction was inactive: 1.02. Consider `O=C(NC1CCS(=O)(=O)C1)NP(=S)(Oc1ccccc1)Oc1ccccc1` (centres undefined), for which the fold induction was inactive: 0.96.

Take `CCOC(=O)NC(Sc1ccccc1)C(Cl)(Cl)Cl` (centres undefined): the fold induction is inactive: 0.86. Consider `Cc1ccc(NP(=O)(Oc2cccc(C)c2)Oc2cccc(C)c2)nc1`, for which the fold induction is inactive: 1.07.

As for `c1ccc(-c2nn[nH]n2)c(-c2nn[nH]n2)c1`, the fold induction was inactive: 0.99. Under `Cc1ccc(OP(=O)(Nc2ccccn2)Oc2ccc(C)cc2)cc1` stands inactive: 1; under `CC(=O)NC(SC(=S)N(CC(C)C)CC(C)C)C(Cl)(Cl)Cl` (centres undefined), inactive: 0.96. For `COC(=O)c1cc2c(s1)N=C(c1ccccc1)N(C)P2(=O)N1CCOCC1` (centres undefined), the fold induction was inactive: 1.15. For `CCC(=O)N1C2C3N(C(=O)CC)C1C1N(C(=O)CC)C(C(N1C(=O)CC)N3C(=O)CC)N2C(=O)CC`, the fold induction was inactive: 0.97.

Take `CN(C)C(=O)Oc1noc2ccccc12`: the fold induction was inactive: 1.04. In the case of `O=c1c2cc([N+](=O)[O-])ccc2[nH]c2c([N+](=O)[O-])cc([N+](=O)[O-])cc12`, the fold induction was inactive: 0.85.

As to `Cc1ccccc1OP(=O)(Nc1ccccn1)Oc1ccccc1C`, the fold induction was inactive: 0.98.
